Assay results: patent US8551984B2, “Aminopyrimidines as SYK inhibitors” (Merck Sharp & Dohme Corp., priority 2009, dated 2013)
pIC50: −log10 of the molar value. Where two headings read alike, the source gives them in different places.

Target: recombinant human SYK (GST-hSYK fusion protein) (Homo sapiens, UniProt P43405)

SMILES: Cc1cc(Nc2nccc(C(F)(F)F)n2)cc(-c2cnc(C3(O)CCN(C(=O)Nc4ccc(C#N)cc4)CC3)s2)c1
- pIC50: > 7.00

SMILES: COC(=O)C1CCC(C(=O)N2CCC(O)(c3ncc(-c4cc(C)cc(Nc5nccc(C(F)(F)F)n5)c4)s3)CC2)CC1 (centres unmarked)
- pIC50 (tested form: formate): > 7.00
